Reference: patent publication US9656953B2, “Inhibition of cell proliferation” (University of South Florida, priority 2005, dated 2017)

Chains of the proteins cited; added tags and fusions are not shown. Lines headed by an entry give the natural chain unless they say otherwise; changes in a name come on top.
UniProt P06400: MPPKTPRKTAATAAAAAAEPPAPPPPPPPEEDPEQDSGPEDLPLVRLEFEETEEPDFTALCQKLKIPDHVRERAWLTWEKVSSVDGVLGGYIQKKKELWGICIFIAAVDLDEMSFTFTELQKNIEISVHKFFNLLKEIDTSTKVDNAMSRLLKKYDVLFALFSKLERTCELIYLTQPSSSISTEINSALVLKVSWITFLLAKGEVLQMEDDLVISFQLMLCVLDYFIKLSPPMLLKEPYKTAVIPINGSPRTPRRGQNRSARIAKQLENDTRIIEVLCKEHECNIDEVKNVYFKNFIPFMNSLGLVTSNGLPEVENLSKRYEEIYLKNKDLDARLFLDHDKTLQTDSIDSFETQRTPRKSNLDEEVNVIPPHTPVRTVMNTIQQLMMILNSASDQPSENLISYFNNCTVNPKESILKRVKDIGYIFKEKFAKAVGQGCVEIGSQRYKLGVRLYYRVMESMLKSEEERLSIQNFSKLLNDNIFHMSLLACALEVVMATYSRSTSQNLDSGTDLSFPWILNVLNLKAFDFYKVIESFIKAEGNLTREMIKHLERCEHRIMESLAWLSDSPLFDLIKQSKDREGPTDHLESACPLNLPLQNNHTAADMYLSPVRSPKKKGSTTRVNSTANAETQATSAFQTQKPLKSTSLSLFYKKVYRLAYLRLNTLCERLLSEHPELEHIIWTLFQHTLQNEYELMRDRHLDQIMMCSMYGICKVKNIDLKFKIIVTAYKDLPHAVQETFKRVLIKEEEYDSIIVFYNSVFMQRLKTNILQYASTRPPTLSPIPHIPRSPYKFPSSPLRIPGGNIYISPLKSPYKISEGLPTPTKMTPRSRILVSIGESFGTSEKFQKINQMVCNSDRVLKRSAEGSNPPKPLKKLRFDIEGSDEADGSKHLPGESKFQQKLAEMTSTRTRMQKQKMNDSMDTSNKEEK
UniProt Q01094: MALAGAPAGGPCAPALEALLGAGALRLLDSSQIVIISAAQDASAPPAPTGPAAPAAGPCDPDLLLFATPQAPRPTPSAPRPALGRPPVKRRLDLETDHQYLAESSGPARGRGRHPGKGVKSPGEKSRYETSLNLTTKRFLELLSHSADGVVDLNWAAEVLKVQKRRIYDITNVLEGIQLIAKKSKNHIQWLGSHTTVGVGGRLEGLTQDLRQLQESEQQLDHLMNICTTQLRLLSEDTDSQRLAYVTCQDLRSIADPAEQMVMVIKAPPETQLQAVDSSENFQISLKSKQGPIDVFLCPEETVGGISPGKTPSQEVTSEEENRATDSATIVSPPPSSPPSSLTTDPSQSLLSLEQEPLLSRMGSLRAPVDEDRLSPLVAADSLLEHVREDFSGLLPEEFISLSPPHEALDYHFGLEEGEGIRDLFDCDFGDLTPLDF
UniProt P35232: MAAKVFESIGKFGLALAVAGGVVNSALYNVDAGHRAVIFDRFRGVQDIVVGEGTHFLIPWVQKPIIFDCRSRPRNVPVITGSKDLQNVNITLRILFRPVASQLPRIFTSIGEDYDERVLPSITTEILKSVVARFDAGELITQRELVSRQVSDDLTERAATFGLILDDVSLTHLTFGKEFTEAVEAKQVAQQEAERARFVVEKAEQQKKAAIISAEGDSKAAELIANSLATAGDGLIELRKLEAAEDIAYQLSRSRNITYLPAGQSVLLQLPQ
UniProt Q13547, whole entry: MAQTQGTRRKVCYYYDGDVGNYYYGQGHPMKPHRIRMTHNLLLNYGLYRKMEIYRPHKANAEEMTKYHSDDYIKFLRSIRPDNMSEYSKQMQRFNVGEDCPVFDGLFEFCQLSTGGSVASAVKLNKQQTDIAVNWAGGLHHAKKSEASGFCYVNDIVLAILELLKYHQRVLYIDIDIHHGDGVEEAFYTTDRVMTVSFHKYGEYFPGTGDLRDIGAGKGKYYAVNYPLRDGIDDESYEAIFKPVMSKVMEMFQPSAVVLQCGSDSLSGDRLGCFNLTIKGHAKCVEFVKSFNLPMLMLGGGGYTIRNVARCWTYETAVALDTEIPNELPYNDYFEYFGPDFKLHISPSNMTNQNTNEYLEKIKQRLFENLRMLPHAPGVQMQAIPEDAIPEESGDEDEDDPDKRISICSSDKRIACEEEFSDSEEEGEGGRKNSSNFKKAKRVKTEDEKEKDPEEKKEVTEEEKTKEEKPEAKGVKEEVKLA

Experiments:
Rb-E2F1 = target: T1, Rb-E2F1 (Homo sapiens, UniProt P06400+Q01094); experiment: GST ELISA, Rb-E2F1 binding; conditions: 20 μM
T1 construct: made in house
Text: In vitro library screening assays. […] Absorbance was read at 490 nanometers (nm).

Rb/prohibitin = Rb/prohibitin (Homo sapiens, UniProt P06400+P35232); conditions: ELISA, 20 μM
Protocol: (§1) In vitro library screening assays. Enzyme Linked ImmunoSorbent Assay (ELISA) 96-well plates were coated with 1 μg/mL of a glutathione S-transferase (GST) Raf-1 (1-149aa) overnight at 4° C. Subsequently the plates were blocked and GST Rb at 20 μg/mL was rotated at room temperature (RT) for 30 minutes in the presence or absence of the compounds at 20 micromolar (μM). GST-Rb +/− compounds were then added to the plate and incubated for 90 minutes (min) at 37° C. The amount of Rb bound to Raf-1 was detected by Rb polyclonal antibody (Santa Cruz Biotechnology, Santa Cruz, Calif.) 1:1000 incubated for 60 min at 37° C. Donkey-anti-rabbit-IgG-HRP (1:10,000) was added to the plate and incubated at 37° C. for 60 minutes. The color was developed with orthophenylenediamine (Sigma, St. Louis, Mo.) and the reaction was terminated with 3 molar (M) H2SO4. Absorbance was read at 490 nanometers (nm). To determine disruption of Rb to E2F1, Phb, or HDAC1 the above protocol was used with the exception of coating GST Rb on the ELISA plate and adding the drugs in the presence or absence of GST E2F1, Phb, or HDAC1. […] Prohibitin monoclonal antibody was used at 1:1000 to detect the amount of Rb bound to Prohibitin. For disruption of MEK-Raf-1 binding ELISAs, Raf-1 1 microgram/milliliter (μg/mL) was coated on the plate and GST-MEK (20 μg/mL) was incubated +/− the compounds for 30 minutes at room temperature. Mek1 polyclonal antibody was used at 1:1000 to detect the binding of Raf-1 to Mek1. The IC50 concentrations for the Rb:Raf-1 inhibitors were determined by plotting with Origin 7.5 software (Origin, Northampton, Mass.).

Raf-1/Mek = Raf-1/Mek (Homo sapiens, UniProt P04049+Q02750); conditions: ELISA, 20 μM
Protocol: as §1

Rb/HDAC1 = Rb/HDAC1 (Homo sapiens, UniProt P06400+Q13547); conditions: ELISA, 20 μM
Protocol: as §1

**Q.** With N=C(N)SCc1ccc(Cl)cc1Cl [(1), 2,4-dichlorobenzyl carbamimidothioate] as the compound, how does the “inhibition of Rb-E2F1 binding / selectivity in words” value (Rb-E2F1) read?
**A.** selective for inhibiting Rb:Raf-1 and not Rb-E2F1 binding

**Q.** Which “inhibition of Rb/prohibitin binding / selectivity in words” value (Rb/prohibitin) does the source give for Cl.N=C(N)SCc1ccc(Cl)cc1Cl [Compound 3a] here?
**A.** without targeting the binding partners of Rb and Raf-1

**Q.** And the “inhibition of Raf-1/Mek association / selectivity in words” value (Raf-1/Mek)?
**A.** without targeting the binding partners of Rb and Raf-1

**Q.** What about the “inhibition of Rb/HDAC1 binding / selectivity in words” value (Rb/HDAC1) of the same compound?
**A.** without targeting the binding partners of Rb and Raf-1

**Q.** What about the “inhibition of Rb-E2F1 binding / selectivity in words” value (Rb-E2F1) of the same compound?
**A.** without targeting the binding partners of Rb and Raf-1
